Test results reported in patent US11168364B2, “Method and system for sequencing nucleic acids” (priority 2016, dated 2021).

Molecular target: T1, Bsu DNA polymerase large fragment / primed template nucleic acid (Bacillus subtilis, UniProt O34996)
T1 construct: 350 U/ml Bsu DNA polymerase large fragment
T1 sequence (O34996 297-880 limits assumed): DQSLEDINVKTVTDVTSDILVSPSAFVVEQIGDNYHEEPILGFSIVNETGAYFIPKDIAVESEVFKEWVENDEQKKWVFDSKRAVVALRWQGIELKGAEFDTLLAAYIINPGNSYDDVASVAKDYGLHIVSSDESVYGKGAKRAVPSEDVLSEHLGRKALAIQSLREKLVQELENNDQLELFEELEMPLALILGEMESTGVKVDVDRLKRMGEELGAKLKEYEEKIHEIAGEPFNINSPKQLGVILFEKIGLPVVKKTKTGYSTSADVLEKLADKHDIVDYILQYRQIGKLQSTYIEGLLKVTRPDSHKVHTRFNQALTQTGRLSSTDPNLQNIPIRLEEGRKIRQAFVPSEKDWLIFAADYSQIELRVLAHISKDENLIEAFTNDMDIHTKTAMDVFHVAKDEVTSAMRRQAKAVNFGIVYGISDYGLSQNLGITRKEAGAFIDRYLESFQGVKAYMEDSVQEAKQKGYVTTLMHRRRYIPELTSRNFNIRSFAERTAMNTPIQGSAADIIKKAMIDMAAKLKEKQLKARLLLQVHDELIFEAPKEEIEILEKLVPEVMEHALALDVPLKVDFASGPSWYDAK
Assay: Biolayer interferometry of polymerase binding to immobilized primed template with cognate or non-cognate nucleotide, salt titration (Example 19)
Conditions: NaCl 400 mM
From the text: A FORTEBIO® (Menlo Park, Calif.) OCTET® instrument employing biolayer interferometry to measure binding reactions at the surface of a fiber optic tip was used in a multiwell plate format to investigate differential stability of binary and ternary complexes. Template strands biotinylated at their 5′-ends were used to immobilize the primed template nucleic acid onto fiber optic tips functionalized with streptavidin (SA) according to standard procedures. […] Tips were first equilibrated in a Tris-buffered solution containing 30 mM Tris-HCl (pH 8.0), and 0.1 mM EDTA before commencing the cycling protocol. Independent binding reactions for the two test nucleotides (i.e., cognate and non-cognate nucleotides) were carried out in the presence of concentrations of NaCl, KCl, or potassium glutamate that varied from 50 mM to 500 mM. […] When using a single contacting step to effect binding of polymerase and nucleotide to the primed template nucleic acid, the binding step was 45 seconds long, with binding interactions being monitored continuously. […] Results from interferometry monitoring were analyzed to identify formation of ternary complexes (i.e., identifying cognate nucleotide) or binary complexes (i.e., identifying non-cognate nucleotide).

[Cl-].[Na+] [NaCl]
Fold Enhancement (Ternary/Binary): 5.93
